Experimental data as given in ChEMBL document CHEMBL3621069 (Bioorg Med Chem Lett, 2015).

Target: Tyrosine-protein kinase SYK (Homo sapiens, UniProt P43405)
Test: Inhibition of purified full-length human SYK pre-incubated for 30 mins at room temperature before Ulight-TK peptide substrate addition and measured 1 hr after substrate addition by cell free kinase assay

Row | IC50 [nM] | SMILES
1 | 0.7 | Cc1nn(-c2ccnc(Nc3ccc4c(c3)c(Cl)cn4C)n2)cc1CN1CC(O)C1
2 | 19.5 | Cc1nn(-c2ccnc(Nc3ccc4c(cnn4C)c3)n2)cc1CN1CC(O)C1
